Our source for the inhibition (viability loss, TRAIL sensitization) values is PubChem BioAssay AID624354 (Sanford-Burnham Center for Chemical Genomics, 2012).

Only a part is listed here, and it is no random draw. Calls of active or inactive are those of the source.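 Rule for the calls: active = compounds causing at least 50% loss of cell viability in the single-dose screen, relative to plate controls; inactive = the rest.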

The experiment is described as follows: viability loss with TRAIL in NB7+C8 cells, primary screen, TRAIL sensitizer project, cell-based, ATPlite luminescence (AID 624354). Conditions: at 10 µM, hits give high values.
In the case of `Cc1cccc(C)c1OP(C)(N)=O` (configuration not stated), the inhibition (viability loss, TRAIL sensitization) is inactive: -0.921%. In the case of `CC(C)(C)c1ccc(OP(C)(=O)Nc2ccc(SC(F)(F)F)cc2)cc1` (configuration not stated), the inhibition (viability loss, TRAIL sensitization) was inactive: -6.85%. `O=[N+]([O-])c1ccc2c(c1)C=Nc1ccccc1O2`: the inhibition (viability loss, TRAIL sensitization) was inactive: 4.43%. Consider `O=[N+]([O-])c1cc([N+](=O)[O-])c(Nc2cccnc2)c([N+](=O)[O-])c1`, for which the inhibition (viability loss, TRAIL sensitization) is inactive: 15.3%.

As to `COc1ccc(OP(C)(=O)Nc2cccc(F)c2)cc1` (configuration not stated), the inhibition (viability loss, TRAIL sensitization) is inactive: 4.34%.

Regarding `COc1ccccc1OP(C)(=O)Nc1cc(Cl)ccc1C` (configuration not stated), the inhibition (viability loss, TRAIL sensitization) is inactive: -7.23%. Turning to `Cc1cc(C)cc(OP(C)(N)=O)c1` (configuration not stated), the inhibition (viability loss, TRAIL sensitization) is inactive: 0.738%.

For `CCOC(=O)c1ccc(NP(C)(=O)Oc2ccccc2)cc1` (configuration not stated), the inhibition (viability loss, TRAIL sensitization) is inactive: 9.65%.

For the molecule `Cc1ccc(NP(C)(=O)Oc2ccccc2)c(C)c1` (configuration not stated), the inhibition (viability loss, TRAIL sensitization) is inactive: -13.7%. In the case of `COc1ccccc1OP(C)(=O)Nc1ccc(C)cc1` (configuration not stated), the inhibition (viability loss, TRAIL sensitization) is inactive: 4.7%. Take `CCN(CC)CCCOC(=O)C(O)(c1ccccc1)c1ccccc1`: the inhibition (viability loss, TRAIL sensitization) was inactive: 3.87%. On to `COc1ccccc1-c1ccccn1.O=[N+]([O-])c1cc([N+](=O)[O-])c(O)c([N+](=O)[O-])c1`, for which the inhibition (viability loss, TRAIL sensitization) is inactive: -8.34%. Consider `Cc1cc(C)cc(OP(C)(=O)Nc2ccc(SC(F)(F)F)cc2)c1` (configuration not stated), for which the inhibition (viability loss, TRAIL sensitization) was inactive: 0.56%. The figure for `CP(=O)(NC(=O)Nc1ccccc1)Oc1ccccc1` (configuration not stated) is inactive: 8.71%; for `CCc1ccc(OP(C)(=O)N2CCN(c3ccc([N+](=O)[O-])cc3)CC2)cc1` (configuration not stated) it is inactive: 8.46%; for `CP(=O)(Oc1ccccc1)OC(c1ccccc1)C(F)(F)F` (configuration not stated) it is inactive: 1.27%. The figure for `Cc1cccc(C)c1OP(C)(=O)Nc1ccc(SC(F)(F)F)cc1` (configuration not stated) is inactive: 0.25%; for `Cc1ccc(Nc2c([N+](=O)[O-])cc([N+](=O)[O-])cc2[N+](=O)[O-])cc1` it is inactive: 24.7%; for `CP(=O)(Nc1ccc(SC(F)(F)F)cc1)Oc1ccc(Cl)cc1` (configuration not stated) it is inactive: -5.5%. The figure for `CP(=O)(Nc1ccccn1)Oc1ccc(Cl)cc1` (configuration not stated) is inactive: -31%; for `CCOP(C)(=S)SCC(=O)NC(C)C(=O)O` (configuration not stated) it is inactive: -0.607%; for `CCOC(=O)c1ccc(NP(C)(=O)Oc2ccc(OC)cc2)cc1` (configuration not stated) it is inactive: -5.7%. `O=[N+]([O-])c1cc([N+](=O)[O-])c(O)c([N+](=O)[O-])c1.c1ccc(Oc2ccncc2)cc1`: the inhibition (viability loss, TRAIL sensitization) is inactive: -37.7%.

`COc1ccccc1OP(C)(=O)Nc1ccccc1` (configuration not stated): the inhibition (viability loss, TRAIL sensitization) is inactive: 2.23%. Turning to `CP(=O)(Nc1ccccc1Br)Oc1ccccc1` (configuration not stated), the inhibition (viability loss, TRAIL sensitization) is inactive: -3.88%. `CP(=S)(Nn1cnnc1)Oc1ccccc1` (configuration not stated): the inhibition (viability loss, TRAIL sensitization) was inactive: 10.6%. On to `CCOC(=O)C(CC)C1=NC(C)(C)Cc2ccccc21.O=[N+]([O-])c1cc([N+](=O)[O-])c(O)c([N+](=O)[O-])c1` (configuration not stated), for which the inhibition (viability loss, TRAIL sensitization) is inactive: -10.1%.
